From patent publication US20080108645A1, “Dihydrotetrabenazines And Pharmaceutical Compositions Containing Them” (CAMBRIDGE LABORATORIES, (IRELAND), LTD., priority 2004, published 2008)

Sequences of proteins named here, by UniProt entry; tags and fusion partners are left off.
UniProt Q01827, whole entry: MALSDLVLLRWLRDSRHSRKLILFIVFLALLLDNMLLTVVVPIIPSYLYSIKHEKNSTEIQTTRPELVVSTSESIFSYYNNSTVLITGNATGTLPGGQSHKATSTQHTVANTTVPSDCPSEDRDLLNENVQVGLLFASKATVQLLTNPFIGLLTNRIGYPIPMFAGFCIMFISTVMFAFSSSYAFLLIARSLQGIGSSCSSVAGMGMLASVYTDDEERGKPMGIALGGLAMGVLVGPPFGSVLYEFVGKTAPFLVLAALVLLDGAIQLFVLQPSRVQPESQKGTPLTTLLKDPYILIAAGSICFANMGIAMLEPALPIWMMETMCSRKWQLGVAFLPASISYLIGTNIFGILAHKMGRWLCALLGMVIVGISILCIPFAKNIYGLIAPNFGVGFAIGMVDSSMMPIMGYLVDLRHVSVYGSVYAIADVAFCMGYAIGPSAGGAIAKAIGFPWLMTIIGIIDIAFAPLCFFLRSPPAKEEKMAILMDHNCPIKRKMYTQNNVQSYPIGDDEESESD

Target: T1, VMAT-2 (Rattus norvegicus, UniProt Q01827)
T1 construct: An adult rat striatal vesicular preparation was then prepared; from tissue; host or cells: adult Wistar rat striatum, vesicular membranes
Test: [3H] Dihydrotetrabenazine binding assay for VMAT-2, adult rat striatal vesicular membranes
Settings: for nH: Hill slope of competition curve

| SMILES | nH | % sites, two-site fit (higher-affinity site) [%] | % sites, two-site fit (lower-affinity site) [%] |
| --- | --- | --- | --- |
| COc1cc2c(cc1OC)[C@H]1C[C@H](O)[C@@H](CC(C)C)CN1CC2 (single isomer, unassigned) [Isomer A, 3,11b-cis-dihydrotetrabenazine] | −0.40 ± 0.08 |  |  |
| COc1cc2c(cc1OC)[C@H]1C[C@@H](O)[C@@H](CC(C)C)CN1CC2 (single isomer, unassigned) [Isomer D, 3,11b-cis-dihydrotetrabenazine] | −0.72 ± 0.05 |  |  |
| COc1cc2c(cc1OC)[C@H]1C[C@@H](O)[C@@H](CC(C)C)CN1CC2 (single isomer, unassigned) [Isomer C, 3,11b-cis-dihydrotetrabenazine] | −0.77 ± 0.07 |  |  |
| COc1cc2c(cc1OC)[C@H]1C[C@H](O)[C@@H](CC(C)C)CN1CC2 (single isomer, unassigned) [Isomer B, 3,11b-cis-dihydrotetrabenazine] | −0.52 ± 0.06 | 26 | 74 |
